Reference: ChEMBL document CHEMBL2331532, “(+)-Laburnamine, a natural selective ligand and partial agonist for the α4β2 nicotinic receptor subtype” (J Nat Prod, 2013)

The chains behind the UniProt entries cited, without tags or fusion partners. Residues count along the entry.
UniProt P36544, 23-502 limits assumed: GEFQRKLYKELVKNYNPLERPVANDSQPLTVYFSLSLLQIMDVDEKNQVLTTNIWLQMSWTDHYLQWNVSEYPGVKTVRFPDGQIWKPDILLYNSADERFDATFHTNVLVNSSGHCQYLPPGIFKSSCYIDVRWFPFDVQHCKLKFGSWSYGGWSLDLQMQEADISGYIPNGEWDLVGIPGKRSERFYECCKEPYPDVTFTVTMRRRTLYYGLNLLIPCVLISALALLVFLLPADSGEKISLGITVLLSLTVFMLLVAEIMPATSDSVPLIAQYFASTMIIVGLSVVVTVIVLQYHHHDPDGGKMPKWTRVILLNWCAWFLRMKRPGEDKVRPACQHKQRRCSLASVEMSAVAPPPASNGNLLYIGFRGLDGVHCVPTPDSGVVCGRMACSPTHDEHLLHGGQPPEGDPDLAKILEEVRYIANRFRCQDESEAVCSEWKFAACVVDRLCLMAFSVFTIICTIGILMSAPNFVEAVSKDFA
UniProt P17787, 26-502 limits assumed: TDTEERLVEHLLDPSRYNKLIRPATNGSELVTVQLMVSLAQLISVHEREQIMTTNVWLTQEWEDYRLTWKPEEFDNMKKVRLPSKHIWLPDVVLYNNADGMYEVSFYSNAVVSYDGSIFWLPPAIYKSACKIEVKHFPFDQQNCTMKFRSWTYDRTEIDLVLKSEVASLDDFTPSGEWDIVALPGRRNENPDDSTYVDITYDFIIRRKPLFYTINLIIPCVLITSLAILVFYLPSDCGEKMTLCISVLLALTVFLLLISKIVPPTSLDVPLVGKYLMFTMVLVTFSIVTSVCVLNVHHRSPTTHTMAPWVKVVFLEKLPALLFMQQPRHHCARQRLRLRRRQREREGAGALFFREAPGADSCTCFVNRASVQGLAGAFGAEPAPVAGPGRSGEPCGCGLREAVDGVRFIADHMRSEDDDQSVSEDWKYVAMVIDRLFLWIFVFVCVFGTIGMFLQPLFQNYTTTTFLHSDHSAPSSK
UniProt P43681, 27-627 limits assumed: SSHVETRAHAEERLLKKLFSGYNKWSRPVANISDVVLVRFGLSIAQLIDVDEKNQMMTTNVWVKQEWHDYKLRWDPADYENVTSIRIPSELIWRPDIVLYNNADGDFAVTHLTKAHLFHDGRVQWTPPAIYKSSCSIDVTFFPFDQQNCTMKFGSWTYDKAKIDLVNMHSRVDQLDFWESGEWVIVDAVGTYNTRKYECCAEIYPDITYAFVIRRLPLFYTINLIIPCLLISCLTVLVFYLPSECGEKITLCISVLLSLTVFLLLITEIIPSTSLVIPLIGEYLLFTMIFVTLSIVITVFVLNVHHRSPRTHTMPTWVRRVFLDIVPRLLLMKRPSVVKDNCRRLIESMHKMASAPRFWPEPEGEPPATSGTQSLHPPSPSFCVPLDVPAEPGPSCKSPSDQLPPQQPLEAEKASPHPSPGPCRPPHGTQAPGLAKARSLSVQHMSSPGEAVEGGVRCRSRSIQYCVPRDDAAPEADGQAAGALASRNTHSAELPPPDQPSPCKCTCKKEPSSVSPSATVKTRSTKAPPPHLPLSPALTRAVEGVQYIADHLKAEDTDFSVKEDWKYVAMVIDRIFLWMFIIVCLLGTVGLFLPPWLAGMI

Assays:
[1] = biological target: Neuronal acetylcholine receptor subunit alpha-7 (Homo sapiens, UniProt P36544); test: Displacement of [125I]alpha-bungarotoxin from alpha7 nAChR (unknown origin)
[2] = biological target: Neuronal acetylcholine receptor; alpha4/beta2 (Homo sapiens, UniProt P17787+P43681)

In the case of `CC(=O)C1=CCC[C@@H]2CC[C@H]1N2`, the Ki [1] is reported as 91 nM and the Ki [2] is reported as 0.34 nM.
